Results: US6686370B2, “Triazospiro compounds having nociceptin receptor affinity” (Euro-Celtique S.A., priority 1999, dated 2004)

Chains of the proteins cited; added tags and fusions are not shown.
UniProt P35372, whole entry: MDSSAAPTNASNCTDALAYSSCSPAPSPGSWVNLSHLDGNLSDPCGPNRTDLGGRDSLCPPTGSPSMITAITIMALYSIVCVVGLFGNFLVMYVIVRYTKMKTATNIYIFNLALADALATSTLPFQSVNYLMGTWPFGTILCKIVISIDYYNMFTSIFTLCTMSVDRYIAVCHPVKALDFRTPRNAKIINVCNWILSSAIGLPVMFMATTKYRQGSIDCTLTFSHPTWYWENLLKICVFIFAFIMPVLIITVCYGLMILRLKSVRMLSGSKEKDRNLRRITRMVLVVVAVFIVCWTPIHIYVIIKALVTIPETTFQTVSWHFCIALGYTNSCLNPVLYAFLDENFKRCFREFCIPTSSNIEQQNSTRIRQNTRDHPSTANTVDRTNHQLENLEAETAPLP
UniProt P41145, whole entry: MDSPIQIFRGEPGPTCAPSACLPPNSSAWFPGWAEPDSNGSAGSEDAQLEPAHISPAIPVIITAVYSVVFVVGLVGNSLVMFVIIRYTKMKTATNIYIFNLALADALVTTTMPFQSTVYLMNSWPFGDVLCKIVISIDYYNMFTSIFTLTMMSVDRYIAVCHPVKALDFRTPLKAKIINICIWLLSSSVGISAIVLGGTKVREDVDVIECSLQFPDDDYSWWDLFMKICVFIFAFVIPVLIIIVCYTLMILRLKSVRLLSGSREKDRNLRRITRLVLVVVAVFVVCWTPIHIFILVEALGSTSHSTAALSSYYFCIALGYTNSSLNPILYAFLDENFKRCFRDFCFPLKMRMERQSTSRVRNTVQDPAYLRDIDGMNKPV
UniProt P41146, whole entry: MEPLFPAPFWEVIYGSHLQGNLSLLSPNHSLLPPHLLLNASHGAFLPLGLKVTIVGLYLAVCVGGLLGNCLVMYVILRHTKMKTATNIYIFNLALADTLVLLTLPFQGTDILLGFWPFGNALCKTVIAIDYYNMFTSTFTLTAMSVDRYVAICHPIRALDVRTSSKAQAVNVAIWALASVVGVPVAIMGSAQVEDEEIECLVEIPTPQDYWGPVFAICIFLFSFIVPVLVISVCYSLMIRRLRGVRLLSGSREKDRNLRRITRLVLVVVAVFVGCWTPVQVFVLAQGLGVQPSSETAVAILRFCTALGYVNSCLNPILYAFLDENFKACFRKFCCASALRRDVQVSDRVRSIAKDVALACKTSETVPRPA

Assays:
Mu opioid receptor = Mu opioid receptor (Homo sapiens, UniProt P35372); assay: [35S]GTPγS binding assay, affinity at the μ receptor; format: biochemical; details: read-out: calc Ki μ; mu opioid receptor membranes
kappa opioid receptor = kappa opioid receptor (Homo sapiens, UniProt P41145); assay: [35S]GTPγS binding assay, affinity at the k receptor; format: biochemical; details: read-out: calc Ki k; kappa opioid receptor membranes
[1] = target: delta opioid receptor (δ2) (Homo sapiens, UniProt P41143); assay: [35S]GTPγS binding assay, affinity at the δ receptor; format: biochemical; details: read-out: calc Ki δ2; delta opioid receptor membranes
[2] = target: human opioid receptor-like receptor (ORL-1) (Homo sapiens, UniProt P41146); assay: Functional [35S]GTPγS binding assay, nociceptin affinity at the ORL1 receptor; details: read-out: Nociceptin Affinity calc Ki; membranes from recombinant HEK-293 cells expressing human ORL-1

CCCC1CCC(N2CCC3(CC2)C(=O)NCN3c2ccccc2)CC1 (stereo not drawn)
Ki (Mu opioid receptor): 2.6 nM | Ki (kappa opioid receptor): 1800 nM | Ki [1]: > 10000 nM | Ki [2]: 20.1 nM

CC(C)CCC(C)N1CCC2(CC1)C(=O)NCN2c1ccccc1 (stereo not drawn)
Ki (Mu opioid receptor): 3.4 nM | Ki (kappa opioid receptor): 257 nM | Ki [1]: 3260 nM | Ki [2]: 36.8 nM

O=C1NCN(c2ccccc2)C12CCN(CCC(c1ccccc1)c1ccccc1)CC2
Ki (Mu opioid receptor): 0.32 nM | Ki (kappa opioid receptor): 478 nM | Ki [1]: 3900 nM | Ki [2]: 56 nM
